# Data taken from patent US10426818B2, “Method and pharmaceutical composition for use in the treatment of diabetes” (INSERM (INSITUT NATIONAL DE LA SANTE ET DE LA RECHERCHE …, priority 2015, dated 2019).
# System: overweighed healthy volunteers
# Conditions: 9 and 30 nmol/kg intravenous infusion
# From the text: Two groups of 8 male, overweighed (BMI 25-30 kg/m^2) healthy volunteers were included in this study.
substance,measurement,value
(pyr1)-Apelin-13,influence on QTc interval,did not influence
same,influence on blood pressure,did not influence
same,influence on heart rate,did not influence
same,side effects in relation with drug administration,No side effect
